Data as given in ChEMBL document CHEMBL3877260, “Synthesis and evaluation of C9 alkoxy analogues of (-)-stepholidine as dopamine receptor ligands” (Eur J Med Chem, 2017).

The chains behind the UniProt entries cited, without tags or fusion partners.
UniProt P35462, whole entry: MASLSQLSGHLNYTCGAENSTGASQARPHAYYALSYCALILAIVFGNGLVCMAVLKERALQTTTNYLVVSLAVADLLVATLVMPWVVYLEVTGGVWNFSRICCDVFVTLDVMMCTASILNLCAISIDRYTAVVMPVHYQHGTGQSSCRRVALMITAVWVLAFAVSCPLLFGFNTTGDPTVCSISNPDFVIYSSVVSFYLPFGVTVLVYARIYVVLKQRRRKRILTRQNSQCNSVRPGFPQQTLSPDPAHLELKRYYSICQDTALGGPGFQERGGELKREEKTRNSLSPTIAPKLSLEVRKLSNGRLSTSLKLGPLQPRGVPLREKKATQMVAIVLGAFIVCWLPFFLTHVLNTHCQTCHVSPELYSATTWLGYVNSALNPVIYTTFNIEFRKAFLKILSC
UniProt P21728, whole entry: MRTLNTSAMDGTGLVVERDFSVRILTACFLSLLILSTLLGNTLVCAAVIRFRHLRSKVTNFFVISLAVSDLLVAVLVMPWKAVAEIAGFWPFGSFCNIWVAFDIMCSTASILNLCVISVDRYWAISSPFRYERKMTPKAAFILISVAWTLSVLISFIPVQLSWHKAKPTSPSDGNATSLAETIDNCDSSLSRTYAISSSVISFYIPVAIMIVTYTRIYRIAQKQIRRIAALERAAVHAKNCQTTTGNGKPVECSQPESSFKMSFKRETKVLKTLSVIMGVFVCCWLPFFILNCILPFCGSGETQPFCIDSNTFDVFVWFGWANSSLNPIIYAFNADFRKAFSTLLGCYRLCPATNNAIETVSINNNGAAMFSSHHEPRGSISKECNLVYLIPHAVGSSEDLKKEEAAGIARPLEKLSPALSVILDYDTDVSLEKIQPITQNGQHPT

Experiments:
[1] = target: D(3) dopamine receptor (Homo sapiens, UniProt P35462); experiment: Displacement of [3H]N-methylspiperone from human D3 receptor expressed in HEKT cell membranes at 10 uM after 90 mins by microbeta scintillation counting method relative to control
[2] = target: D(1A) dopamine receptor (Homo sapiens, UniProt P21728); experiment: Displacement of [3H]SCH23390 from human D1 receptor expressed in HEKT cell membranes at 10 uM after 90 mins by microbeta scintillation counting method relative to control

inhibition [1]: > 50% | inhibition [2]: > 50%
SMILES: CCC(C)Oc1c(O)ccc2c1CN1CCc3cc(OC)c(O)cc3[C@@H]1C2 (some centres not stated)
